# CycPeptMPDB entries from one study

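Lipid, pH, incubation time, direction and concentration are not recorded in the data file. The list need not hold all peptides of the study. Entries at the database's floor value (log10 P of -10) are not listed.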

PAMPA measures passive passage through an artificial lipid membrane.
P is given in units of 10^-6 cm/s (from log10 values with two decimals); larger means faster passage.

{"smiles": "CCCN1CC(=O)N(C)[C@H](CC(C)C)C(=O)N[C@@H](Cc2ccccc2)CC(=O)N2CCC[C@@H]2C(=O)N(C)[C@@H](CC(C)C)C(=O)N[C@@H](Cc2ccccc2)C(=O)N2CCC[C@@H]2C1=O", "PAMPA (10^-6 cm/s)": "6.8"}
{"smiles": "CC(C)C[C@@H]1C(=O)N(Cc2ccccc2)CC(=O)N2CCC[C@H]2C(=O)N(C)[C@@H](CC(C)C)C(=O)N[C@@H](Cc2ccccc2)C(=O)N2CCC[C@@H]2C(=O)N(C)[C@H](C)C(=O)N1C", "PAMPA (10^-6 cm/s)": "3.8"}
{"smiles": "CC(C)C[C@@H]1NC(=O)[C@@H](CC(C)C)NC(=O)[C@@H](C)NC(=O)[C@H](Cc2ccccc2)NC(=O)[C@@H](CC(C)C)N(C)C(=O)[C@H]2CCCN2C1=O", "PAMPA (10^-6 cm/s)": "4.2"}
{"smiles": "CC(C)C[C@@H]1C(=O)N2CCC[C@H]2C(=O)N[C@H](CC(C)C)C(=O)N[C@@H](Cc2ccccc2)C(=O)N2CCC[C@H]2C(=O)N[C@@H](Cc2ccccc2)CC(=O)N[C@H](CC(C)C)C(=O)N1C", "PAMPA (10^-6 cm/s)": "2.9"}
{"smiles": "CC(C)C[C@H]1C(=O)N[C@@H](Cc2ccccc2)CC(=O)N2CCC[C@@H]2C(=O)N(C)[C@@H](CC(C)C)C(=O)N[C@@H](Cc2ccccc2)C(=O)N2CCC[C@H]2C(=O)N(C)[C@H](C)C(=O)N1C", "PAMPA (10^-6 cm/s)": "4.9"}
{"smiles": "CCCN1CC(=O)N(C)[C@@H](CC(C)C)C(=O)N(C)[C@H](CC(C)C)C(=O)N2CCC[C@H]2C(=O)N[C@H](CC(C)C)C(=O)N[C@@H](Cc2ccccc2)C1=O", "PAMPA (10^-6 cm/s)": "19"}
{"smiles": "CC(C)C[C@@H]1NC(=O)[C@@H](CC(C)C)NC(=O)C[C@H](Cc2ccccc2)NC(=O)[C@H](Cc2ccccc2)NC(=O)[C@@H](CC(C)C)NC(=O)[C@H]2CCCN2C1=O", "PAMPA (10^-6 cm/s)": "9.3"}
{"smiles": "CC(C)C[C@H]1NC(=O)[C@H]2CCCN2C(=O)[C@H](CC(C)C)N(C)C(=O)CN(Cc2ccccc2)C(=O)[C@H](C)N(C)C(=O)[C@H]2CCCN2C(=O)[C@H](Cc2ccccc2)NC1=O", "PAMPA (10^-6 cm/s)": "2.1"}
{"smiles": "CC(C)C[C@@H]1NC(=O)[C@@H](C)N(C)C(=O)[C@@H]2CCCN2C(=O)[C@H](Cc2ccccc2)NC(=O)[C@@H](CC(C)C)N(C)C(=O)[C@@H]2CCCN2C(=O)CN(Cc2ccccc2)C1=O", "PAMPA (10^-6 cm/s)": "2.5"}
{"smiles": "CCCN1CC(=O)N(C)[C@@H](CC(C)C)C(=O)N[C@@H](CC(C)C)C(=O)N2CCC[C@@H]2C(=O)N[C@@H](CC(C)C)C(=O)N[C@@H](Cc2ccccc2)C(=O)N2CCC[C@@H]2C1=O", "PAMPA (10^-6 cm/s)": "1.5"}
{"smiles": "CC(C)C[C@@H]1C(=O)N(Cc2ccccc2)CC(=O)N2CCC[C@@H]2C(=O)N(C)[C@H](CC(C)C)C(=O)N[C@@H](Cc2ccccc2)C(=O)N2CCC[C@H]2C(=O)N[C@@H](C)C(=O)N1C", "PAMPA (10^-6 cm/s)": "0.56"}
{"smiles": "CC(C)C[C@@H]1NC(=O)[C@H](C)N(C)C(=O)[C@H](Cc2ccccc2)NC(=O)[C@@H](CC(C)C)NC(=O)[C@@H]2CCCN2C(=O)[C@H](CC(C)C)N(C)C1=O", "PAMPA (10^-6 cm/s)": "1"}
{"smiles": "CC(C)C[C@@H]1C(=O)N[C@@H](Cc2ccccc2)CC(=O)N2CCC[C@@H]2C(=O)N(C)[C@H](CC(C)C)C(=O)N[C@@H](Cc2ccccc2)C(=O)N2CCC[C@@H]2C(=O)N[C@@H](Cc2ccccc2)CC(=O)N1C", "PAMPA (10^-6 cm/s)": "2.5"}
{"smiles": "CC(C)C[C@@H]1NC(=O)[C@H](C)NC(=O)[C@H]2CCCN2C(=O)[C@H](Cc2ccccc2)NC(=O)[C@H](CC(C)C)NC(=O)[C@@H]2CCCN2C(=O)[C@H](CC(C)C)NC1=O", "PAMPA (10^-6 cm/s)": "0.35"}
{"smiles": "CC(C)C[C@@H]1NC(=O)[C@H](C)NC(=O)[C@H](Cc2ccccc2)NC(=O)[C@@H](CC(C)C)N(C)C(=O)[C@@H]2CCCN2C(=O)C[C@H](Cc2ccccc2)NC1=O", "PAMPA (10^-6 cm/s)": "0.6"}
{"smiles": "CC(C)C[C@@H]1C(=O)N[C@@H](Cc2ccccc2)C(=O)N2CCC[C@H]2C(=O)N(C)[C@H](C)C(=O)N(C)[C@@H](CC(C)C)C(=O)N[C@H](CC(C)C)C(=O)N2CCC[C@H]2C(=O)N1C", "PAMPA (10^-6 cm/s)": "3.8"}
{"smiles": "CC(C)C[C@@H]1C(=O)N(Cc2ccccc2)CC(=O)N2CCC[C@@H]2C(=O)N(C)[C@@H](CC(C)C)C(=O)N[C@@H](Cc2ccccc2)C(=O)N[C@H](C)C(=O)N1C", "PAMPA (10^-6 cm/s)": "10"}
{"smiles": "CCCN1CC(=O)N[C@@H](CC(C)C)C(=O)N(Cc2ccccc2)CC(=O)N2CCC[C@@H]2C(=O)N(C)[C@@H](CC(C)C)C(=O)N[C@@H](Cc2ccccc2)C(=O)N2CCC[C@H]2C1=O", "PAMPA (10^-6 cm/s)": "2.8"}
{"smiles": "CC(C)C[C@@H]1NC(=O)C[C@H](Cc2ccccc2)NC(=O)[C@H](Cc2ccccc2)NC(=O)CN(Cc2ccccc2)C(=O)[C@H]2CCCN2C(=O)[C@@H](CC(C)C)NC1=O", "PAMPA (10^-6 cm/s)": "3.8"}
{"smiles": "CC(C)C[C@@H]1NC(=O)[C@H]2CCCN2C(=O)CN(Cc2ccccc2)C(=O)[C@H](CC(C)C)NC(=O)[C@@H](C)NC(=O)[C@H](Cc2ccccc2)NC1=O", "PAMPA (10^-6 cm/s)": "1.5"}
{"smiles": "CC(C)C[C@@H]1NC(=O)[C@H](C)N(C)C(=O)[C@@H]2CCCN2C(=O)[C@H](Cc2ccccc2)NC(=O)[C@@H](CC(C)C)N(C)C(=O)[C@@H]2CCCN2C(=O)[C@@H](CC(C)C)NC1=O", "PAMPA (10^-6 cm/s)": "2.8"}
{"smiles": "CC(C)C[C@@H]1NC(=O)[C@@H](C)NC(=O)[C@H]2CCCN2C(=O)[C@H](Cc2ccccc2)NC(=O)[C@@H](CC(C)C)N(C)C(=O)[C@H]2CCCN2C(=O)CN(Cc2ccccc2)C1=O", "PAMPA (10^-6 cm/s)": "1.7"}

Collected by the curators of CycPeptMPDB (Li et al. 2023) from Townsend et al. 2020, doi:10.26434/chemrxiv.13335941.v1.